Measurements from patent publication US10703723B2, “Prodrugs of sulfasalazine, pharmaceutical compositions thereof and their use in the treatment of autoimmune disease” (Truly Translational Sweden AB, priority 2017, dated 2020).
Read-outs that look alike come from different tables or passages of the source.

Legend:
[1] = male, Wistar (Hannover), rat, in vivo, po, 40 mg/kg
Method: In accordance with Swedish legislations for preclinical in vivo studies in rodents and following evaluation and approval of the experimental procedures the local ethical committee (M388-12), following acclimatization to the housing conditions for a minimum of 7 days after arrival, male Wistar (Hannover) rats (Taconic, Denmark), average weight 300 g; average age 8-10 weeks, were treated with test items (see table 1); 12-16 h prior to dosing all food except for an amount equivalent to a half day consumption was removed. […] The rats were conscious during sample collection and the blood was taken from the sub-lingual vein. Blood samples were collected from each rat over a period of up to 24 h. […] The body weight of the rat was recorded before dosing. The weight of the syringe was recorded before and after administration to allow calculation of the actual amount of test sample delivered. […]
Samples and standards were injected by a HTC PAL from CTC analytics into an LC system from Shimadzu consisting of a high pressure gradient system of two LC-10 AD pumps controlled by a SCL-10A controller from Shimadzu. […] The eluent was analyzed by a Quattro Ultima from Micromass equipped with an electrospray ion source. Data was collected and calibrations were calculated by MassLynx 4.0 software. […] The eluent was ionized by negative ion electrospray and the mrm transition from 397 to 197 m/z was monitored. […]

[2] = appearance of test formulations / solubility over time in PBC buffer (pH 7.4); type: physicochemical; conditions: 0.5% CMC in phosphate buffer (pH 7.4)
[3] = cited from earlier work
[4] = RA patients with slow acetylation rate, 2 g/d sulfasalazine

O=C(O)c1cc(/N=N/c2ccc(S(=O)(=O)Nc3ccccn3)cc2)ccc1O [Sulfasalazine, 2-hydroxy-5-[2-[4-[(2-pyridinylamino)sulfonyl]phenyl]diazenyl]-benzoic acid]
Ratio SP to SSZ for AUC0-4 h (h*nmol/L) [1]: 14:1 | Ratio SP to SSZ for Cmax (nmol/L) [1]: 20:1 | Appearance of test formulations t = 0 h ([2]; t = 0 h): suspension | Appearance of test formulations t = 4 h ([2]; t = 4 h): suspension | ratio of AUC0→∞ of SP vs SSZ [3, 4]: 5.5 | ratio of blood plasma steady state concentration (CSS) of SP vs SSZ [3, 4]: 6 | ratio of AUC0→∞ of SP vs SSZ ([3]; healthy volunteer study, 63° slow acetylators): 4
